Reference: patent US11174301B2 (Takeda Pharmaceutical Company Limited, priority 2017, dated 2021)

The chains behind the UniProt entries cited, without tags or fusion partners. Residues count along the entry.
UniProt P43220, 24-463: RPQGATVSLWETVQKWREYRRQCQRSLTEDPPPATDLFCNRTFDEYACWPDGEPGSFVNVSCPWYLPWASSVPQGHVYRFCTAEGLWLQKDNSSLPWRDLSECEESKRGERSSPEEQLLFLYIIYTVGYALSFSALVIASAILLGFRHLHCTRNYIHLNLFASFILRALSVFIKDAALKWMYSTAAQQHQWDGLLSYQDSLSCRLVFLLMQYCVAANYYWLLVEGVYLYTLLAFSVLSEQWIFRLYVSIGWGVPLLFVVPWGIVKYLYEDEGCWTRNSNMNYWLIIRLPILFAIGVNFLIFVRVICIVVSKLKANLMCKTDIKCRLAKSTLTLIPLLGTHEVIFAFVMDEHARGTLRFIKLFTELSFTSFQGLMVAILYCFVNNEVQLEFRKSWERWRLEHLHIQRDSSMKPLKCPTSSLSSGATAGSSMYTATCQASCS

Assays:
human GIPR [1] = target: T1, human GIPR (Homo sapiens, UniProt P48546); experiment: Agonist activity on human GIPR, CRE-luciferase reporter assay with increase in intracellular cAMP as indicator; type: cell-based; settings: hGIPR/CRE-LUC/CHO-K1 cells, 4 hours incubation, 10 nM GIP = 100%
T1 construct: expressed in transfected cells; host or cells: CHO-K1 (CRE-LUC/CHO-K1 reporter cell; hGIPR/CRE-LUC/CHO-K1 line)
T1 sequence (P48546 22-466): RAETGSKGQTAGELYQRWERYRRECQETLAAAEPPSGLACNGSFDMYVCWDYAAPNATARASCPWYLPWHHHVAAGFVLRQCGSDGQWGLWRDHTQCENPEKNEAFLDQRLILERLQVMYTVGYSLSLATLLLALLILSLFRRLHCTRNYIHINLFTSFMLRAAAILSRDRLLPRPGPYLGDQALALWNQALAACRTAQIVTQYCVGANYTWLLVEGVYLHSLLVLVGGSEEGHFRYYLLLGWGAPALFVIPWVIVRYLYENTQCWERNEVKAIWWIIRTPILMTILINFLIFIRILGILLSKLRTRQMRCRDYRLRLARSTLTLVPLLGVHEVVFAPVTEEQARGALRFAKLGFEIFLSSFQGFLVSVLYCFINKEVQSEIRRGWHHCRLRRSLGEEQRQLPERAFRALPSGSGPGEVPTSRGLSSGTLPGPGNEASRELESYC
Description: (2) Construction of Reporter Plasmid Expressing Cell
(4) Transfer of Human GIPR Gene to CRE-LUC/CHO-K1 Cell and Obtaining of Expressing Cell
Subsequently, the cell line inducing the luciferase expression, hGIPR/CRE-LUC/CHO-K1 cell, was selected from the obtained transformant by adding GIP.
(§1) Steady-Glo (Promega) was added in amounts of 30 μL and shaken under light shielding. 20 Minutes later, luciferase activity was measured using a plate reader Envision (PerkinElmer).

human GLP-1R = target: T2, human GLP-1R (Homo sapiens, UniProt P43220); experiment: Agonist activity on human GLP-1R, CRE-luciferase reporter assay with increase in intracellular cAMP as indicator; type: cell-based; settings: hGLP-1R/CRE-luc/CHO-K1 cells, 4 hours incubation, 10 nM GLP-1 = 100%
T2 construct: expressed in transfected cells; host or cells: CHO-K1 (hGLP-1R/CRE-luc/CHO-K1 line)
Description: (3) Construction of Reporter Plasmid
(5) Construction of Expression Plasmid of Human GLP-1R Gene
(6) Transfer of Human GLP-1R Gene and Reporter Plasmid to CHO-K1 Cell and Obtaining of Expressing Cell
The Cre-luc (Zeo) obtained in (3) and the plasmid hGLP-1/pIRESneo3 obtained in (5) were transferred to the CHO-K1 cell to obtain a transformant. Subsequently, the cell line inducing the luciferase expression, hGLP-1R/CRE-luc/CHO-K1 cell, was selected from the obtained transformant by adding GLP-1.
as §1

human GIPR [2] = target: T1, human GIPR; experiment: Binding activity to human GIPR using [125I]-GIP (GIPR_VLP); settings: [125I]GIP 100 pM, room temperature 2 hours
Description: The GF/C glass fiber filter 96-well plate in which VLP was trapped was dried at 42° C. overnight. Thereafter, MicroScint-O (PerkinElmer 6013611) was added to the GF/C glass fiber filter 96-well plate sealed using a backseal and the plate was sealed using a topseal.

Row | Substance | EC50 (human GIPR [1]) [nM] | EC50 (human GLP-1R) [nM] | IC50 (human GIPR [2]) [nM]
1 | Ac-Tyr-Aib-Glu-Gly-Thr-Iva-Ile-Ser-Asp-Tyr-Ser-Ile-Aib-Lys(Eda-GGGGG-)-Asp-Arg-Aib-Ala-Gln-Aib-Asn-Phe-Val-Asn-Trp-Iva-Leu-Ala-Gln-Arg-Pro-Ser-Ser-Gly-Ala-Pro-Pro-Pro-Ser-NH2 [Compound 435] | 0.051 | > 1000 | 18
2 | H-MeTyr-Aib-Glu-Gly-Thr-Iva-Ile-Ser-Asp-Tyr-Ser-Ile-Aib-Leu-Asp-Arg-Lys(Eda-PEG(3)-PEG(3)-)-Ala-Gln-Aib-Asn-Phe-Val-Asn-Trp-Iva-Leu-Ala-Gln-Arg-Pro-Ser-Ser-Gly-Ala-Pro-Pro-Pro-Ser-NH2 [Compound 307] | 0.04 | > 1000 | 5
3 | H-MeTyr-Aib-Glu-Gly-Thr-Iva-Ile-Ser-Asp-Tyr-Ser-Ile-Aib-Lys(Oda-GGGGG-)-Asp-Arg-Aib-Ala-Gln-Aib-Asn-Phe-Val-Asn-Trp-Iva-Leu-Ala-Gln-Arg-NH2 [Compound 415] | 0.024 | > 1000 | 4.3
4 | H-MeTyr-Aib-Glu-Gly-Thr-Iva-Ile-Ser-Asp-Tyr-Ser-Ile-Aib-Lys(Oda-GGGGG-)-Asp-Arg-Aib-Ala-Gln-Aib-Asn-Phe-Val-Asn-Trp-Iva-Leu-Ala-Gln-Arg-Pro-Ser-Ser-Gly-Ala-Pro-Pro-Pro-Ser-OH [Compound 441] | 0.031 | > 1000 | 3.8
5 | H-Tyr-Aib-Glu-Gly-Thr-Val-Lys-Ser-Asp-Tyr-Ser-Ile-Aib-Leu-Asp-Lys-Gln-Ala-Gln-Aib-Glu-Phe-Val-Lys-Trp-Leu-Leu-Lys-Gly-Gly-Pro-Ser-Ser-Gly-Ala-Pro-Pro-Pro-Ser-Lys-NH2 [Compound 8] | 0.079 | > 1000 | 17
6 | H-Tyr-Aib-Glu-Gly-Thr-Val-Lys-Ser-Asp-Tyr-Ser-Ile-Leu-Leu-Asp-Lys-Gln-Ala-Gln-Aib-Glu-Phe-Val-Lys-Trp-Leu-Leu-Lys-Gly-Gly-Pro-Ser-Ser-Gly-Ala-Pro-Pro-Pro-Ser-Lys-NH2 [Compound 10] | 0.016 | > 1000 | 5.8
7 | H-Tyr-Aib-Glu-Gly-Thr-Val-Val-Ser-Leu-Tyr-Ser-Ile-Aib-Leu-Asp-Arg-Gln-Ala-Gln-Aib-Glu-Phe-Val-Arg-Trp-Leu-Leu-Arg-Gly-Gly-Pro-Ser-Ser-Gly-Ala-Pro-Pro-Pro-Ser-Arg-NH2 [Compound 30] | 0.01 | > 1000 | 1.3
8 | H-Tyr-Aib-Glu-Gly-Thr-Val-Val-Ser-Leu-Tyr-Ser-Ile-Aib-Leu-Asp-Lys-Gln-Ala-Gln-Aib-Glu-Phe-Val-Lys-Trp-Aib-Leu-Lys-Gly-Gly-Pro-Ser-Ser-Gly-Ala-Pro-Pro-Pro-Ser-Lys-NH2 [Compound 42] | 0.0069 | > 1000 | 1.1
9 | H-Tyr-Aib-Glu-Gly-Thr-Val-Val-Ser-Phe-Tyr-Ser-Ile-Aib-Leu-Asp-Lys-Gln-Ala-Gln-Aib-Glu-Phe-Val-Lys-Trp-Leu-Leu-Lys-Gly-Gly-Pro-Ser-Ser-Gly-Ala-Pro-Pro-Pro-Ser-Lys-NH2 [Compound 7] | 0.021 | > 1000 | 5.9
10 | Me-Tyr-Aib-Glu-Gly-Thr-Iva-Ile-Ser-Asp-Tyr-Ser-Ile-Aib-Leu-Asp-Arg-Lys(Eda-GGGGG-)-His-Gln-Aib-Asn-Phe-Val-Asn-Trp-Iva-Leu-Ala-Gln-Arg-Pro-Ser-Ser-Gly-Ala-Pro-Pro-Pro-Ser-NH2 [Compound 493] | 0.046 | > 1000 | 25
11 | Me-Tyr-Aib-Glu-Gly-Thr-Iva-Ile-Ser-Asp-Tyr-Ser-Ile-Aib-Leu-Asp-Arg-Lys(Heda-GGGGGG-)-Ala-Gln-Aib-Asn-Phe-Val-Asn-Trp-Iva-Leu-Ala-Gln-Arg-Pro-Ser-Ser-Gly-Ala-Pro-Pro-Pro-Ser-NH2 [Compound 494] | 0.0044 | > 1000 | 3.2
12 | Me-Tyr-Aib-Glu-Gly-Thr-Iva-Ile-Ser-Asp-Tyr-Ser-Ile-Aib-Leu-Asp-Arg-Lys(Heda-GGGGGG-)-His-Gln-Aib-Asn-Phe-Val-Asn-Trp-Iva-Leu-Ala-Gln-Arg-Pro-Ser-Ser-Gly-Ala-Pro-Pro-Pro-Ser-NH2 [Compound 503] | 0.0051 | > 1000 | 8
13 | Me-Tyr-Aib-Glu-Gly-Thr-Iva-Ile-Ser-Asp-Tyr-Ser-Ile-Aib-Leu-Asp-Arg-Lys(Hepda-GGGGG-)-His-Gln-Aib-Asn-Phe-Val-Asn-Trp-Iva-Leu-Ala-Gln-Arg-Pro-Ser-Ser-Gly-Ala-Pro-Pro-Pro-Ser-NH2 [Compound 502] | 0.0084 | > 1000 | 
14 | Me-Tyr-Aib-Glu-Gly-Thr-Iva-Ile-Ser-Asp-Tyr-Ser-Ile-Aib-Leu-Asp-Arg-Lys(Hepda-GGGGGG-)-Ala-Gln-Aib-Asn-Phe-Val-Asn-Trp-Iva-Leu-Ala-Gln-Arg-Pro-Ser-Ser-Gly-Ala-Pro-Pro-Pro-Ser-NH2 [Compound 495] | 0.0058 | > 1000 | 4.6
15 | Me-Tyr-Aib-Glu-Gly-Thr-Iva-Ile-Ser-Asp-Tyr-Ser-Ile-Aib-Leu-Asp-Arg-Lys(Hepda-GGGGGG-)-His-Gln-Aib-Asn-Phe-Val-Asn-Trp-Iva-Leu-Ala-Gln-Arg-Pro-Ser-Ser-Gly-Ala-Pro-Pro-Pro-Ser-NH2 [Compound 504] | 0.0089 | > 1000 | 9.1
16 | Me-Tyr-Aib-Glu-Gly-Thr-Iva-Ile-Ser-Asp-Tyr-Ser-Ile-Aib-Leu-Asp-Arg-Lys(Oda-GGGGG-)-His-Gln-Aib-Asn-Phe-Val-Asn-Trp-Iva-Leu-Ala-Gln-Arg-Pro-Ser-Ser-Gly-Ala-Pro-Pro-Pro-Ser-NH2 [Compound 491] | 0.017 | > 1000 | 13
17 | Me-Tyr-Aib-Glu-Gly-Thr-Iva-Ile-Ser-Asp-Tyr-Ser-Ile-Aib-Leu-Asp-Arg-Lys(Oda-GGGGGG-)-Ala-Gln-Aib-Asn-Phe-Val-Asn-Trp-Iva-Leu-Ala-Gln-Arg-Pro-Ser-Ser-Gly-Ala-Pro-Pro-Pro-Ser-NH2 [Compound 496] | 0.013 | > 1000 | 10
18 | Me-Tyr-Aib-Glu-Gly-Thr-Iva-Ile-Ser-Asp-Tyr-Ser-Ile-Aib-Leu-Asp-Arg-Lys(Oda-GGGGGG-)-His-Gln-Aib-Asn-Phe-Val-Asn-Trp-Iva-Leu-Ala-Gln-Arg-Pro-Ser-Ser-Gly-Ala-Pro-Pro-Pro-Ser-Arg-NH2 [Compound 486] | 0.025 | > 1000 | 17
19 | Me-Tyr-Aib-Glu-Gly-Thr-Iva-Ile-Ser-Asp-Tyr-Ser-Ile-Aib-Leu-Asp-Arg-Lys(Oda-GGGGGG-)-His-Gln-Aib-Asn-Phe-Val-Asn-Trp-Iva-Leu-Ala-Gln-Arg-Pro-Ser-Ser-Gly-Ala-Pro-Pro-Pro-Ser-NH2 [Compound 492] | 0.018 | > 1000 | 13
20 | Me-Tyr-Aib-Glu-Gly-Thr-Iva-Ile-Ser-Asp-Tyr-Ser-Ile-Aib-Lys(Eda-GGGGG-)-Asp-Arg-Aib-Ala-Gln-Aib-Asn-Phe-Val-Asn-Trp-Iva-Leu-Ala-Gln-Arg-Pro-Ser-Ser-Gly-Ala-Pro-Pro-Pro-Ser-Arg-NH2 [Compound 473] | 0.032 | > 1000 | 6.8
21 | Me-Tyr-Aib-Glu-Gly-Thr-Iva-Ile-Ser-Asp-Tyr-Ser-Ile-Aib-Lys(Eda-GGGGG-)-Asp-Arg-Aib-His-Gln-Aib-Asn-Phe-Val-Asn-Trp-Iva-Leu-Ala-Gln-Arg-Pro-Ser-Ser-Gly-Ala-Pro-Pro-Pro-Ser-NH2 [Compound 475] | 0.042 | > 1000 | 8.9
22 | Me-Tyr-Aib-Glu-Gly-Thr-Iva-Ile-Ser-Asp-Tyr-Ser-Ile-Aib-Lys(Eda-GGGGGG-)-Asp-Arg-Aib-His-Gln-Aib-Asn-Phe-Val-Asn-Trp-Iva-Leu-Ala-Gln-Arg-Pro-Ser-Ser-Gly-Ala-Pro-Pro-Pro-Ser-Arg-NH2 [Compound 522] | 0.12 | > 1000 | 
23 | Methyl-Tyr-Aib-Glu-Gly-Thr-Phe-Ile-Ser-Asp-Tyr-Ser-Ile-Ala-Leu-Asp-Arg-Ile-Ala-Gln-Gln-Asp-Phe-Val-Asn-Trp-Leu-Leu-Ala-Gln-Arg-Pro-Ser-Ser-Gly-Ala-Pro-Pro-Pro-Ser-Arg-NH2 [Compound 59] |  | > 1000 | 1.1
